Results published in patent US20240352072.

System: ACE2me2 di-methylated ACE2 peptide QAKTFLD{Lys(Me2)}FNHEAED

## recombinant LSD1 protein
  in vitro LSD1 activity assay (demethylation reaction): LSD1 efficiently de-methylated the ACE2 peptide at lysine 31
